Test results from US9458198B1, “Cyclic peptide-based NPR-B agonists” (priority 2009, dated 2016).

Molecular target: T1, NPR-B (Homo sapiens, UniProt P20594)
T1 construct: a functional assay using endogenously NPR-B expressing GTM-3 cells; endogenous in cells; host or cells: GTM-3 (transformed human trabecular meshwork cells)
T1 sequence (P20594 23-1047): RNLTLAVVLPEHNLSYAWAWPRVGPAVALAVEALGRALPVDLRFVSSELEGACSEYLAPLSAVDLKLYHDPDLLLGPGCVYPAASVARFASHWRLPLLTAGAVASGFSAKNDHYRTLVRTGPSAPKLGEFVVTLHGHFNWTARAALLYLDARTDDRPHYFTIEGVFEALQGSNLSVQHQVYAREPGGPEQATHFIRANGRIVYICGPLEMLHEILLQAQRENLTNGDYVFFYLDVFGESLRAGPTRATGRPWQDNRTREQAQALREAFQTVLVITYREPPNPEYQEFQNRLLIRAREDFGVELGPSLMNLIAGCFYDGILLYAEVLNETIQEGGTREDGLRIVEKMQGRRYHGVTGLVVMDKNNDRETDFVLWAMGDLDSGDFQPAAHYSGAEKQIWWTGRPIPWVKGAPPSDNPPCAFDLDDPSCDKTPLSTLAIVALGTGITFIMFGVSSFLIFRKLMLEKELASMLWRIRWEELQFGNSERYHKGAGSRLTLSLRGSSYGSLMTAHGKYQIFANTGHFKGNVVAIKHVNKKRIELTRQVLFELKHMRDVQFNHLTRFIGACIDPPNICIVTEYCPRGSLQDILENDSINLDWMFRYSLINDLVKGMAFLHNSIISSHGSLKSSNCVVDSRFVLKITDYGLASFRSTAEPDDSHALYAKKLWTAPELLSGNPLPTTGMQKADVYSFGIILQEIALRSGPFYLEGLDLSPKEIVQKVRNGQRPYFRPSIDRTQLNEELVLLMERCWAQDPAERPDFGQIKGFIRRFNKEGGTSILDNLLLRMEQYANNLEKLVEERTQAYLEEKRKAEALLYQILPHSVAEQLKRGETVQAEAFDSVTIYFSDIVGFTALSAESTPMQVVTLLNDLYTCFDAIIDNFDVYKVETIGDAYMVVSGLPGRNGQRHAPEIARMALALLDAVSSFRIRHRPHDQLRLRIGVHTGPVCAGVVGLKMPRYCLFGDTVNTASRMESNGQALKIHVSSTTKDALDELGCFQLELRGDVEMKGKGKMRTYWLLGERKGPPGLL
Assay: NPR-B induced production of cyclic GMP in GTM-3 cells
Format: cell-based
Conditions: group needs both EC50 and Emax criteria, checked A then B then C, read-out: Activity (group): NPR-B activation, EC50 and Emax (CNP = 100%)
Experimental: The efficacy and potency of compounds to activate NPR-B were evaluated in a functional assay using endogenously NPR-B expressing GTM-3 cells (Pang et al. 1994, Curr Eye Res 13:51-63). In this assay the dose dependent production of cyclic GMP (cGMP) is determined and Emax (maximum activation) and EC50 values are calculated.
The cell culture medium is aspirated and each well is washed with 200 μl DMEM/Ham's F12=Medium (Gibco). Then, 200 μl Medium supplemented with 1 mM IBMX (3-Isobutyl-1-methyl-xanthin, Sigma) is added to each well and incubated for 15 min. at room temperature.
Final compound concentrations are in the range from 45 μM to 20 nM.

SMILES | EC50
CCCCCC(=O)N[C@H]1CSSC[C@@H](C(N)=O)NC(=O)[C@H](CO)NC(=O)[C@H]([C@@H](C)CC)NC(=O)[C@H](CCCNC(=N)N)NC(=O)[C@H](CC(=O)O)NC(=O)[C@H](CC(C)C)NC(=O)[C@H](CCCCN)NC(=O)[C@H](CC(C)C)NC(=O)CNC(=O)[C@H](Cc2ccccc2)NC(=O)[C@H]2CCN2C1=O [compound 79] | < 1 µM
CCCCCC(=O)N[C@H]1CSSC[C@@H](C(N)=O)NC(=O)[C@H](CO)NC(=O)[C@H]([C@@H](C)CC)NC(=O)[C@H](CCCNC(=N)N)NC(=O)[C@H](CC(=O)O)NC(=O)[C@H](CC(C)C)NC(=O)[C@H](CCCCN)NC(=O)[C@H](CC(C)C)NC(=O)CNC(=O)[C@H](Cc2ccccc2)NC(=O)[C@H]2CCCCN2C1=O [compound 81] | < 1 µM
CCCCCC(=O)N[C@H]1CSSC[C@@H](C(N)=O)NC(=O)[C@H](CO)NC(=O)[C@H]([C@@H](C)CC)NC(=O)[C@H](CCCCNC(=N)N)NC(=O)[C@H](CC(=O)O)NC(=O)[C@H](CC(C)C)NC(=O)[C@H](CCCCN)NC(=O)[C@H](CC(C)C)NC(=O)CNC(=O)[C@H](Cc2ccccc2)NC(=O)[C@@H](C)NC1=O [compound 82] | < 5 µM
CCCCCC(=O)N[C@H]1CSSC[C@@H](C(N)=O)NC(=O)[C@H](CO)NC(=O)[C@H]([C@@H](C)CC)NC(=O)[C@H](CCCNC(=N)N)NC(=O)[C@H](CC(=O)O)NC(=O)[C@H](CCCC)NC(=O)[C@H](CCCCN)NC(=O)[C@H](CC(C)C)NC(=O)CNC(=O)[C@H](Cc2ccccc2)NC(=O)[C@@H](C)NC1=O [compound 83] | < 1 µM
CCCCCC(=O)N[C@H]1CSSC[C@@H](C(N)=O)NC(=O)[C@H](CO)NC(=O)[C@H]([C@@H](C)CC)NC(=O)[C@H](CCCNC(=N)N)NC(=O)[C@H](CC(=O)O)NC(=O)[C@H](C(C)(C)C)NC(=O)[C@H](CCCCN)NC(=O)[C@H](CC(C)C)NC(=O)CNC(=O)[C@H](Cc2ccccc2)NC(=O)[C@@H](C)NC1=O [compound 84] | < 5 µM
CCCCCC(=O)N[C@H]1CSSC[C@@H](C(N)=O)NC(=O)[C@H](CO)NC(=O)[C@H]([C@@H](C)CC)NC(=O)[C@H](CCCNC(=N)N)NC(=O)[C@H](CC(=O)O)NC(=O)[C@H](CC(C)C)NC(=O)[C@H](CCC2CCNCC2)NC(=O)[C@H](CC(C)C)NC(=O)CNC(=O)[C@H](Cc2ccccc2)NC(=O)[C@@H](C)NC1=O [compound 85] | < 1 µM
CCCCCC(=O)N[C@H]1CSSC[C@@H](C(N)=O)NC(=O)[C@H](CO)NC(=O)[C@H]([C@@H](C)CC)NC(=O)[C@H](CCCNC(=N)N)NC(=O)[C@H](CC(=O)O)NC(=O)[C@H](C2CCCCC2)NC(=O)[C@H](CCCCN)NC(=O)[C@H](CC(C)C)NC(=O)CNC(=O)[C@H](Cc2ccccc2)NC(=O)[C@@H](C)NC1=O [compound 94] | < 5 µM
CCCCCC(=O)N[C@H]1CSSC[C@@H](C(N)=O)NC(=O)[C@H](CO)NC(=O)[C@H]([C@@H](C)CC)NC(=O)[C@H](CCCNC(=N)N)NC(=O)[C@H](CC(=O)O)NC(=O)[C@H](CC(C)(C)C)NC(=O)[C@H](CCCCN)NC(=O)[C@H](CC(C)C)NC(=O)CNC(=O)[C@H](Cc2ccccc2)NC(=O)[C@@H](C)NC1=O [compound 95] | < 1 µM
CCCCCC(=O)N[C@H]1CSSC[C@@H](C(N)=O)NC(=O)[C@H](CO)NC(=O)[C@H]([C@@H](C)CC)NC(=O)[C@H](CCCN)NC(=O)[C@H](CC(=O)O)NC(=O)[C@H](CC(C)C)NC(=O)[C@H](CCCCN)NC(=O)[C@H](CC(C)C)NC(=O)CNC(=O)[C@H](Cc2ccccc2)NC(=O)[C@@H](C)NC1=O [compound 96] | < 5 µM
CCCCCC(=O)N[C@H]1CSSC[C@@H](C(N)=O)NC(=O)[C@H](CO)NC(=O)[C@H]([C@@H](C)CC)NC(=O)[C@H](CCCNC2=NCCN2)NC(=O)[C@H](CC(=O)O)NC(=O)[C@H](CC(C)C)NC(=O)[C@H](CCCCN)NC(=O)[C@H](CC(C)C)NC(=O)CNC(=O)[C@H](Cc2ccccc2)NC(=O)[C@@H](C)NC1=O [compound 97] | < 5 µM
CCCCCC(=O)N[C@H]1CSSC[C@@H](C(N)=O)NC(=O)[C@H](CO)NC(=O)[C@H]([C@@H](C)CC)NC(=O)[C@H](CCCNC(=N)NC)NC(=O)[C@H](CC(=O)O)NC(=O)[C@H](CC(C)C)NC(=O)[C@H](CCCCN)NC(=O)[C@H](CC(C)C)NC(=O)CNC(=O)[C@H](Cc2ccccc2)NC(=O)[C@@H](C)NC1=O [compound 98] | < 5 µM
CCCCCC(=O)N[C@H]1CSSC[C@@H](C(N)=O)NC(=O)[C@H](CO)NC(=O)[C@H]([C@@H](C)CC)NC(=O)[C@H](CCCNC(=N)N(C)C)NC(=O)[C@H](CC(=O)O)NC(=O)[C@H](CC(C)C)NC(=O)[C@H](CCCCN)NC(=O)[C@H](CC(C)C)NC(=O)CNC(=O)[C@H](Cc2ccccc2)NC(=O)[C@@H](C)NC1=O [compound 99] | < 5 µM
CCCCCC(=O)N[C@H]1CSSC[C@@H](C(N)=O)NC(=O)[C@H](CO)NC(=O)[C@H]([C@@H](C)CC)NC(=O)[C@H](CCCNC(=N)N)NC(=O)[C@H](CC(=O)O)NC(=O)[C@H](CC(C)C)NC(=O)[C@H](CCCCN)NC(=O)[C@H](CC(C)C)NC(=O)CNC(=O)[C@H](Cc2cccc(F)c2)NC(=O)[C@@H](C)NC1=O [compound 103] | < 5 µM
CCCCCC(=O)N[C@H]1CSSC[C@@H](C(N)=O)NC(=O)[C@H](CO)NC(=O)[C@H]([C@@H](C)CC)NC(=O)[C@H](CCCNC(=N)N)NC(=O)[C@H](CC(=O)O)NC(=O)[C@H](CC(C)C)NC(=O)[C@H](CCCCN)NC(=O)[C@H](CC(C)C)NC(=O)CNC(=O)[C@H](Cc2cccc(C)c2)NC(=O)[C@@H](C)NC1=O [compound 104] | < 1 µM
CCCCCC(=O)N[C@H]1CSSC[C@@H](C(N)=O)NC(=O)[C@H](CO)NC(=O)[C@H]([C@@H](C)CC)NC(=O)[C@H](CCCNC(=N)N)NC(=O)[C@H](CC(=O)O)NC(=O)[C@H](CC(C)C)NC(=O)[C@H](CCCCN)NC(=O)[C@H](CC(C)C)NC(=O)CNC(=O)[C@H](Cc2cccc(C#N)c2)NC(=O)[C@@H](C)NC1=O [compound 106] | < 5 µM
CCCCCC(=O)N[C@H]1CSSC[C@@H](C(N)=O)NC(=O)[C@H](CO)NC(=O)[C@H]([C@@H](C)CC)NC(=O)[C@H](CCCNC(=N)N)NC(=O)[C@H](CC(=O)O)NC(=O)[C@H](CC(C)C)NC(=O)[C@H](CCCCN)NC(=O)[C@H](CC(C)C)NC(=O)CNC(=O)[C@H](Cc2cccc([N+](=O)[O-])c2)NC(=O)[C@@H](C)NC1=O [compound 107] | < 5 µM
CCCCCC(=O)N[C@H]1CSSC[C@@H](C(N)=O)NC(=O)[C@H](CO)NC(=O)[C@H]([C@@H](C)CC)NC(=O)[C@H](CCCNC(=N)N)NC(=O)[C@H](CC(=O)O)NC(=O)[C@H](CC(C)C)NC(=O)[C@H](CCCCN)NC(=O)[C@H](CC(C)C)NC(=O)CNC(=O)[C@H](Cc2cccc(OC)c2)NC(=O)[C@@H](C)NC1=O [compound 108] | < 5 µM
CCCCCC(=O)N[C@H]1CSSC[C@@H](C(N)=O)NC(=O)[C@H](CO)NC(=O)[C@H]([C@@H](C)CC)NC(=O)[C@H](CCCNC(=N)N(C)C)NC(=O)[C@H](CC(=O)O)NC(=O)[C@H](CC(C)C)NC(=O)[C@H](CCCCN)NC(=O)[C@H](CC(C)C)NC(=O)CNC(=O)[C@H](Cc2ccccc2)NC(=O)[C@@H](C)NC1=O [compound 109] | < 15 µM
CCCCCC(=O)N[C@H]1CSSC[C@@H](C(N)=O)NC(=O)[C@H](CO)NC(=O)C2(CCCC2)NC(=O)[C@H](CCCNC(=N)N)NC(=O)[C@H](CC(=O)O)NC(=O)[C@H](CC(C)C)NC(=O)[C@H](CCCCN)NC(=O)[C@H](CC(C)C)NC(=O)CNC(=O)[C@H](Cc2ccccc2)NC(=O)[C@@H](C)NC1=O [compound 110] | < 5 µM
CCCCCC(=O)N[C@H]1CSSC[C@@H](C(N)=O)NC(=O)[C@H](CO)NC(=O)[C@H]([C@@H](C)CC)NC(=O)[C@H](CCCNc2ccccn2)NC(=O)[C@H](CC(=O)O)NC(=O)[C@H](CC(C)C)NC(=O)[C@H](CCCCN)NC(=O)[C@H](CC(C)C)NC(=O)CNC(=O)[C@H](Cc2ccccc2)NC(=O)[C@@H](C)NC1=O [compound 111] | < 5 µM
CCCCCC(=O)N[C@H]1CSSC[C@@H](C(N)=O)NC(=O)[C@H](CO)NC(=O)[C@H]([C@@H](C)CC)NC(=O)[C@H](C2CCNCC2)NC(=O)[C@H](CC(=O)O)NC(=O)[C@H](CC(C)C)NC(=O)[C@@H]2CCCN2C(=O)[C@H](CC(C)C)NC(=O)CNC(=O)[C@H](Cc2ccccc2)NC(=O)[C@@H](C)NC1=O [compound 113] | < 5 µM
